Test results from patent US20230270720A1, “MAVOGLURANT, A MGLUR5 ANTAGONIST, FOR USE IN THE TREATMENT IN THE REDUCTION OF OPIOID USE” (Novartis AG, priority 2020, published 2023).

System: Sprague-Dawley rats
Test: Remifentanil intravenous self-administration model in Sprague-Dawley rats
Format: in vivo, rat

Compound	average number of remifentanil infusions (20 mg/kg p.o. 30 minutes before one remifentanil 3.2 μg/kg/infusion session)	average number of remifentanil infusions (0.4 mg/kg s.c. 30 minutes before session)	rate of lever press (0.4 mg/kg s.c. 30 minutes before session, not reaching statistical significance (p>0.05)) [responses per second]
Cc1cccc(C#Cc2ccccc2)n1 [Compound (III), 2-Methyl-6-(phenylethynyl)-pyridine, reference compound]	did not significantly affect	–	–
Buprenorphine hydrochloride	–	markedly and significantly reduced	0.038±0.025
